Assay results as given in ChEMBL document CHEMBL4823282, “Novel Broad-Spectrum Antimicrobial Peptide Derived from Anoplin and Its Activity on Bacterial Pneumonia in Mice” (J Med Chem, 2021).
Converted amounts (≈) assume the structure as drawn.

Key:
[1] = system: Staphylococcus aureus; assay: Antibacterial activity against Staphylococcus aureus ATCC 25923 incubated for 18 hrs by CLSI based broth dilution method; type: functional
[2] = system: Bacillus subtilis; assay: Antibacterial activity against Bacillus subtilis ATCC 23857 incubated for 18 hrs by CLSI based broth dilution method; type: functional
[3] = system: Pseudomonas aeruginosa; assay: Antibacterial activity against Pseudomonas aeruginosa ATCC 27853 incubated for 18 hrs by CLSI based broth dilution method; type: functional
[4] = system: Staphylococcus epidermidis; assay: Antibacterial activity against Staphylococcus epidermidis ATCC 12228 incubated for 18 hrs by CLSI based broth dilution method; type: functional
[5] = Cytotoxicity against human glomerular mesangial cells incubated for 12 hrs by MTT assay; type: cell-based; conditions: Glomerular mesangial cell
[6] = system: Escherichia coli; assay: Antibacterial activity against Escherichia coli ATCC 25922 incubated for 18 hrs by CLSI based broth dilution method; type: functional

Q: For CC[C@H](C)[C@H](NC(=O)CN)C(=O)NCC(=O)N[C@@H](C)C(=O)N[C@H](C(=O)N[C@@H](CC(C)C)C(=O)N[C@@H](CCCCN)C(=O)N[C@H](C(=O)N[C@@H](CC(C)C)C(=O)N[C@H](C(=O)N[C@H](C(=O)NCC(=O)N[C@@H](CC(C)C)C(=O)N1CCC[C@H]1C(=O)N[C@@H](C)C(=O)N[C@@H](CC(C)C)C(=O)N[C@H](C(=O)N[C@@H](CO)C(=O)N[C@@H](Cc1c[nH]c2ccccc12)C(=O)N[C@H](C(=O)N[C@@H](CCCCN)C(=O)N[C@@H](CCCNC(=N)N)C(=O)N[C@@H](CCCCN)C(=O)N[C@@H](CCCNC(=N)N)C(=O)N[C@@H](CCC(N)=O)C(=O)N[C@@H](CCC(N)=O)C(N)=O)[C@@H](C)CC)[C@@H](C)CC)[C@@H](C)O)[C@@H](C)O)C(C)C)C(C)C [MELITTIN], which MIC [1] is on record?
A: 2 µM (≈ 5.69 µg/mL)

Q: And the MIC [2]?
A: 1 µM (≈ 2.85 µg/mL)

Q: And the MIC [3]?
A: 8 µM (≈ 22.8 µg/mL)

Q: And the MIC [4]?
A: 4 µM (≈ 11.4 µg/mL)

Q: What about the IC50 [5] of the same compound?
A: 1490 nM

Q: What about the MIC [6] of the same compound?
A: 8 µM (≈ 22.8 µg/mL)
